Data set [1] in a line: Hydrolysis (first aquation step) followed by HPLC, Example 5. Format: physicochemical. The following applies: nanopure water. The protocol:
For hydrolysis studies, […] complex was dissolved in 1 mL of nanopure water. The pH values of the samples were controlled in regular intervals and readjusted if necessary by addition of HNO3 (1 M, 0.1 M, 0.01 M) or NaOH (1 M, 0.1 M, 0.01 M). Aliquots of 20 μL were taken from the bulk solution for HPLC analysis. The overall scheme may be described as follows:
The aquated species were identified by comparison with the hydrolysis profile produced by the corresponding (labile) nitrate compounds. The rate constants for the first aquation step k1 are given in Table 2 and compared with other platinum complexes containing one or two labile ligands. […] In particular, these rates are 2-3 orders of magnitude lower than that of transplatin itself. The rate of aquation tends toward that of carboplatin which in phosphate buffer at 310 K gave a hydrolysis rate of 7.2×10^−7 s^−1 (but in aqueous solution gives a barely measurable rate constant of <5×10^−9 s^−1, which is modulated by the presence of buffer, nucleophile or acid). ^31,32No evidence for formation of Pt(TV) species during hydrolysis is detected under these conditions.^33

Data set [2] in a line: Aqueous solubility of TPA-acetate complexes (sequential addition of water). The following applies: ambient temperature.

On to “trans-[diacetato(ammine)(quinoline)platinum(II)] [trans-[Pt(OAc)2(NH3)(quin)]]”, for which the “k1, rate constant for the first aquation step” value in data set [1] is reported as “(3.7 ± 0.1) × 10^−7 s^−1”. In data set [2], this substance yielded a Solubility of 1600 µg/mL.

For “trans-[diacetatobis(pyridine)platinum(II)] [trans-[Pt(OAc)2(py)2]]”, in data set [1], the “k1, rate constant for the first aquation step” value was “(3.2 ± 0.3) × 10^−7 s^−1”.

The values are drawn from patent US8324197B2, “Transplatinum complexes with N2O2 donor sets as cytotoxic and antitumor agents” (Virginia Commonwealth University, priority 2005, dated 2012).
